From publication PMC13585564

What was measured:
[1] = target: HSL3 ectodomain (wild type, residues 23–627) (Arabidopsis); assay: ITC; CTNIP4 peptide (140–800 µM, syringe) injected into 15 µM HSL3 ectodomain or variant (cell); 25 °C; 20 mM sodium citrate, 150 mM NaCl, pH 5.0; N fitted to 1
[2] = target: HSL3 ectodomain (wild type, residues 23–627) (Arabidopsis); assay: ITC

## CTNIP4(41–70)_(Cys–Cys) (peptide)
[1]
  fold reduction in affinity against CTNIP4(46–70) (Cys–Cys): < 60 fold

## CTNIP4(44–70)_(Cys–Cys) (peptide)
[1]
  fold reduction in affinity against CTNIP4(46–70) (Cys–Cys): < 60 fold

## CTNIP4(45–70)_(Cys–Cys) (peptide)
[1]
  fold reduction in affinity against CTNIP4(46–70) (Cys–Cys): < 60 fold

## CTNIP4(47–70)_(Cys–Cys) (peptide)
[1]
  fold reduction in binding against CTNIP4(46–70) (Cys–Cys): 4 fold

## CTNIP4(48–70)_(Cys–Cys) (peptide)
[1]
  fold loss of affinity against CTNIP4(46–70) (Cys–Cys): 200 fold

## CTNIP4^C58A(46–63) (peptide)
[1]
  fold reduction in binding affinity against CTNIP4(46–70) (Cys–Cys): 200 fold

## CTNIP4^C58A.C68A(46–70)_(linear)
[2]
  Kd: 20.7 µM

## CTNIP4^I61Y(46–70)_(Cys–Cys) (peptide)
[1]
  fold reduction in binding affinity against CTNIP4(46–70) (Cys–Cys): 120 fold
